Laboratory results as given in paper PMC3466219 (PLoS ONE, 2012).
Entries after “also recorded” stand apart in the source; their conditions may differ.

Tested on: acetylated tubulin in LNCaP cells
Assay type: cell-based

Compound: c1cc(SSc2ccns2)sn1 [NU9056, 1,2-Bis(isothiazol-5-yl)disulfane]
- acetylated tubulin: decrease; also recorded: returned to basal levels; also recorded: no change
